# Test results as given in patent US8501807B2, “Pentaerythritol derivatives” (priority 2004, dated 2013).
# Assay: Evaluation of moisture retaining ability in dry conditions (weight change, 18° C., RH 20%)
# Format: physicochemical
# Details: initial moisture content 60%, constant temperature and humidity chamber 18° C.
# Experimental: Moisture retaining ability was evaluated and compared for the compounds obtained in the Examples.
# Specifically, samples were prepared such that the moisture content of the compounds obtained in the Examples was 60%, and while the samples were kept in a constant temperature and humidity chamber (18° C., RH 20%), the weight change of the samples was observed over time, thereby enabling evaluation of the changes in moisture content.
substance,measurement,setting,value
pentaerythritol ethoxylate (15/4 EO/OH) glycolic ester ethoxylate stearyl ether (pentaerythritol ethoxylate (15/4 EO/OH) steareth-10 carboxylate) [Example 42],"moisture content of sample, 1 h",1 h,57%
same,"moisture content of sample, 2 h",2 h,55%
same,"moisture content of sample, 4 h",4 h,48%
same,"moisture content of sample, 6 h",6 h,34%
